uPA surface inh: cell surface uPA generation inhibition; Potency, µM (top dose mostly 38.3 µM), inactives show at the highest dose activity change, negative = inhibition, most hits filed as inhibitors; cell surface uPA generation assay, qHTS; actives 0.31% (n = 330,000); active = well fitted inhibition curve with a large enough effect; inconclusive = small, poorly fitted or top-dose-only effect; inactive = no such curve, though single readings can be large or run the other way; tested in mouse RAW 264.7 cells; note: potency is the fitted concentration of half-maximal effect; % is set by controls: 0 for no effect and ±100 for the full control effect; nearly all actives have a fitted effect of over 55% in size
miR-21 FLuc: miR-21 reporter, rising signal. HeLa miR-21 FLuc reporter, luciferase, 48 h. Potency, µM (titrated, usually from 38.3 µM), without a hit: at the top dose reporter change, positive = more light. 340,000 tested, under 10 active. AID 2288; active = well fitted rising curve with a large enough effect; inconclusive = small, poorly fitted or top-dose-only effect; inactive = no such curve, though single readings can be large or run the other way;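 also: % of control where 0% means no effect; miR-21 action dims this reporter so a rising signal means less miR-21 action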
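HeLa miR-21-FLuc reporter line, endogenous miR-21; 2000 cells/well in DMEM/10% FBS; compound titration up to ~40uM final, 48 h, 37 degree Celsius; luciferase detection reagent, 15 min lysis, CCD luminescence.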
TDP1 block: blocks human tyrosyl-DNA phosphodiesterase 1. Q9NUW8. recombinant TDP1, AlphaScreen DNA substrate cleavage. Potency, µM (series often up to 130 µM), for inactives: at the top dose activity change, negative = inhibition, most hits filed as inhibitors. actives 0.28% (n = 350,000). AID 485290; note: potency is the fitted concentration of half-maximal effect; % is set by controls: 0 for no effect and ±100 for the full control effect; nearly all actives have a fitted effect of over 40% in size
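AlphaScreen read-out: signal falls as enzyme removes the 3' tyrosine-FITC from a 5'-biotinylated DNA oligo (15 nM, 5 min, RT). Enzyme was E. coli-made recombinant Tdp1 at 1 nM, exposed to compound for 15 min beforehand; beads 10 ug/ml, 10 min.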
TDP1 cell CPT: DT40-hTDP1 cell growth loss with CPT. chicken DT40 Tdp1-/-;hTDP1 cells + 20 nM CPT, ATP luminescence, 48 h. Potency, µM (series often up to 46.2 µM), for inactives: at the highest dose activity change, negative = growth inhibition, usual class: inhibitors. actives 12% (n = 420,000); note: potency is the fitted concentration of half-maximal effect; % is set by controls: 0 for no effect and ±100 for the full control effect; nearly all actives have a fitted effect of over 55% in size
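Cell growth measured by CellTiter-Glo luminescence after a minimum 48 h, 37 C compound exposure with 20 nM CPT in Tdp1-knockout DT40 cells stably expressing hTDP1, seeded 400/well; qHTS titration format.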
DT40 TDP1 no CPT: qHTS for Inhibitors of human tyrosyl-DNA phosphodiesterase 1 (TDP1): qHTS in cells in absence of CPT | DT40 Tdp1-/- hTDP1 cells, no CPT, ATP luminescence, 48 h | Potency, µM (top dose mostly 46.2 µM), for the others: at the highest dose activity change, negative = growth inhibition, most hits filed as inhibitors | actives 15% (n = 420,000) | AID 686978, 2013; note: potency is the fitted concentration of half-maximal effect; % is set by controls: 0 for no effect and ±100 for the full control effect; nearly all actives have a fitted effect of over 55% in size
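No-CPT arm: Tdp1-/-;hTDP1 DT40 cells (400/well) plus compounds, incubated ≥48 hr at 37 °C. Readout CellTiter-Glo luminescence.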
An asterisk follows results filed as active; ? = inconclusive; nt = not tested or not shown; [ ] = remark or other dose. Hits are enriched below; roughly 16% of the tested compounds scored in any of these assays. Unless noted, calls come from the whole dose curve; as a rule, active = well fitted curve in the direction sought with a large enough effect; inconclusive = small, poorly fitted or top-dose-only effect, or another doubt; inactive = no such curve, though single readings can be large; an effect the other way counts as inactive or inconclusive.

item	canonical_smiles	uPA surface inh	miR-21 FLuc	TDP1 block
1	C1CN(P2(N3CC3)=NP(N3CC3)(N3CC3)=NP(N3CC3)(N3CC3)=N2)CCO1 (stereo unspecified)	nt	nt	nt
2	Oc1ccc2c3c1O[C@H]1[C@@H](O)CC[C@@]4(O)C(C2)N(CC2CCC2)CCC314 (stereo partly specified)	nt	nt	9%[56.1 µM]
3	CNC(=O)OCc1n(C)cc[n+]1C	3%	-13%	0%
4	Cc1ccc(-n2cc(CNC(C)Cc3cnccn3)c(-c3cccc(C)c3)n2)cc1 (stereo unspecified)	-2%	13%	5%
5	CC(Cc1cnccn1)NCc1c(C(=O)N2CCCCCCC2)nc2ccc(Cl)cn12 (stereo unspecified)	-8%	-7%	2%
6	Cc1ccc2c(c1)C1(CCN(CCc3nc(-c4ccccc4)oc3C)CC1)OC(=O)N2	nt	nt	20%
7	Cc1nnc2n1-c1sc(CCc3ccc(CC(C)C)cc3)cc1C(c1ccccc1Cl)=NC2C (stereo unspecified)	nt	nt	nt
8	CC1CCC(NC(=O)c2cc3c(=O)n(C)c4ccccc4c3n2C)CC1 (stereo unspecified)	-10%	-26%	3%

item	TDP1 cell CPT	DT40 TDP1 no CPT
1	0.58µM*	1.3µM*
2	2%	-8%
3	-19%	2%
4	13µM*	12µM*
5	4%	3%
6	nt	nt
7	?	12µM*
8	9.2µM*	?

item	canonical_smiles	uPA surface inh	miR-21 FLuc	TDP1 block
9	CCC(=O)Nc1cc(C(=O)O)ccc1S(=O)(=O)c1ccc(C)cc1	6%	-3%	20µM*
10	Cc1cc(C=O)c(C)n1C(C)C	6%	0%	-6%
11	C=CCn1c(O)c(C(C)=NC2CCN(Cc3ccccc3)CC2)c(=O)[nH]c1=O	9%	-1%	nt
12	C=C1C(=O)O[C@H]2C[C@@H](C)[C@@H]3C=CC(=O)[C@@]3(C)C[C@H]12	49%	?	1%
13	C=C1C(=O)O[C@@H]2C[C@@H](C)[C@@H]3C=CC(=O)[C@@]3(C)[C@@H](OC(=O)CC(=O)O[C@H]3[C@@H]4C(=C)C(=O)O[C@@H]4C[C@@H](C)[C@@H]4C=CC(=O)[C@]43C)[C@H]12	-95%	?	2%
14	C=CCN	nt	nt	5%
15	CCC1C(=O)OC[C@H]1Cc1cncn1C (stereo partly specified)	nt	nt	10%[56.1 µM]
16	O=C(c1ccc(F)cc1)N1CCC(c2nc(-c3ccc(S(=O)(=O)N4CCCC4)cc3)no2)CC1	nt	11%	-2%

item	TDP1 cell CPT	DT40 TDP1 no CPT
9	13%	3%
10	7%	-18%
11	1%	-6%
12	1µM*	0.65µM*
13	0.058µM*	0.073µM*
14	nt	nt
15	5%	-6%
16	21µM*	12µM*

Single records, as listed above.
Entry for C=C1C(=O)O[C@@H]2C[C@@H](C)[C@@H]3C=CC(=O)[C@@]3(C)[C@@H](OC(=O)CC(=O)O[C@H]3[C@@H]4C(=C)C(=O)O[C@@H]4C[C@@H](C)[C@@H]4C=CC(=O)[C@]43C)[C@H]12 : uPA surface inh: -95%; miR-21 FLuc: ?; TDP1 block: 2%; TDP1 cell CPT: 0.058µM*; DT40 TDP1 no CPT: 0.073µM*
Entry for CC(Cc1cnccn1)NCc1c(C(=O)N2CCCCCCC2)nc2ccc(Cl)cn12 (stereo unspecified) : uPA surface inh: -8%; miR-21 FLuc: -7%; TDP1 block: 2%; TDP1 cell CPT: 4%; DT40 TDP1 no CPT: 3%

Following part
item	canonical_smiles	uPA surface inh	miR-21 FLuc	TDP1 block
17	CCOC(=O)c1cnc2c(ccc3ccccc32)c1Nc1ccc(C(C)=O)cc1	nt	-24%	nt
18	CC(=O)O[C@H]1C[C@@H]2OC3C=C(C)CCC3(C)[C@@]1(C)[C@@]21CO1 (stereo partly specified)	-10%	nt	nt
19	CC(C)CC(N)C1(c2ccc(Cl)cc2)CCC1 (stereo unspecified)	nt	nt	4%
20	COc1ccc(CCNC(=O)C(=O)NCC2OCCN2S(=O)(=O)c2ccc(Cl)cc2)cc1 (stereo unspecified)	-3%	18%	nt
21	O=C(NCCc1ccc(F)cc1)C(=O)NCC(c1cccs1)S(=O)(=O)c1ccc(Cl)cc1 (stereo unspecified)	nt	27%	-3%
22	COc1cccc([C@@]2(O)CCCCC2CN(C)C)c1 (stereo partly specified)	nt	nt	8%
23	CN1C(=O)C(=Cc2coc3ccccc3c2=O)C(=O)N(C)C1=O	7%	-14%	0%
24	CO[C@H]1C=CCCC=CC(=O)O[C@H]([C@H](C)C(=O)CCCC2CC(=O)NC(=O)C2)C(C)=C[C@@H](C)[C@@H]1O	nt	nt	nt

item	TDP1 cell CPT	DT40 TDP1 no CPT
17	?	23µM*
18	0.58µM*	1µM*
19	nt	nt
20	?	?
21	15µM*	12µM*
22	nt	nt
23	?	23µM*
24	16µM*	6.5µM*

item	canonical_smiles	uPA surface inh	miR-21 FLuc	TDP1 block
25	C=C(C=O)C[C@@H]1C[C@H](O)C2OC3C[C@]4(C)OC5/C=C\CC6OC7C(CC=CCC6OC5CCCC4OC3CC2O1)OC1CC2OC3CC(=O)OC3C[C@@H](C)C[C@@]2(C)OC1C[C@@H]7C (stereo partly specified)	-12%	?	0%
26	C=C(C=O)CC1CC(O)[C@]2(C)OC3C[C@@H]4OC5C[C@]6(C)O[C@]7(C)CCC8OC9C[C@]%10(C)OC(/C(C)=C\CO)C(O)CC%10OC9CC(C)C8OC7CC6O[C@]5(C)C/C=C\C4OC3CC2O1 (stereo partly specified)	-5%	nt	-1%
27	CCC1=Nc2cc(C(=O)N3CCC4(CC3)OCCO4)ccc2Sc2ccccc21	3%	-1%	5%
28	CC[C@H](C)C(=O)O[C@@H]1[C@H](O)[C@@H]2[C@H](CN3C[C@@H](C)CC[C@@H]3[C@@]2(C)O)[C@@H]2C[C@@]34O[C@@]5(O)[C@@H](OC(=O)[C@](C)(O)CC)CC[C@@]3(C)[C@H]5[C@H](OC(C)=O)[C@@H](OC(C)=O)[C@H]4[C@]12O	nt	nt	8%[56.1 µM]
29	COc1cc(C(=O)NC2CCN(C)CC2)ccc1Nc1ncc2c(n1)N(C1CCCC1)CCC(=O)N2C(C)C	?	nt	nt
30	COC(=O)CCCc1[se]c2ccccc2c1I	nt	nt	1%
31	O=C(O)CP(=O)(O)c1ccc(Cl)cc1	4%	0%	1%
32	NS(=O)(=O)c1ccc(CCNC(=O)c2ccc(Cl)c(S(=O)(=O)N3CCCCC3)c2)cc1	-11%	nt	-2%

item	TDP1 cell CPT	DT40 TDP1 no CPT
25	0.65µM*	0.58µM*
26	-21%	?
27	?	?
28	nt	nt
29	?	16µM*
30	nt	nt
31	-11%	0%
32	?	23µM*

item	canonical_smiles	uPA surface inh	miR-21 FLuc	TDP1 block
33	Cc1ccc(CCNC(=O)c2cc3cc(S(=O)(=O)N4CCCCC4)ccc3n2C)cc1	nt	4%	3%
34	COC(=O)c1cccc(N=Cc2c(O)n(Cc3ccc(F)cc3)c(=O)[nH]c2=O)c1	4%	-5%	-2%
35	CCOC(=O)C1=Nc2ccccc2/C1=C\c1c(O)n(C)c(=O)n(C)c1=O	-8%	4%	-1%
36	COc1ccc(C(=O)Nc2ccc3c(c2)N(C)C(=O)c2ccccc2S3)cc1OC	nt	?	6%
37	CN1C(=O)c2ccccc2Sc2ccc(NC(=O)c3ccc(C(F)(F)F)cc3)cc21	nt	?	0%
38	CCN1C(=O)c2ccccc2Sc2ccc(NC(=O)c3ccc(C)c(F)c3)cc21	nt	24%	-2%
39	C[C@H]1C(=O)O[C@@H]2CCN3CC=C(COC(=O)[C@@](C)(O)[C@@]1(C)O)[C@H]23	nt	nt	11%[21 µM]
40	Nc1nc(N)c2nc(CNc3ccc(C(=O)NC(CCC(=O)O)C(=O)O)cc3)cnc2n1 (stereo unspecified)	nt	nt	?

item	TDP1 cell CPT	DT40 TDP1 no CPT
33	7.3µM*	2.9µM*
34	10%	-9%
35	?	?
36	2.9µM*	2.6µM*
37	4.6µM*	2.9µM*
38	?	?
39	nt	nt
40	-81%	-96%

High-throughput results (PubChem BioAssay)
